The results in this text go back to ChEMBL document CHEMBL4321856.

By Ki is commonly meant the equilibrium dissociation constant of an inhibitor or competing ligand from its target. The ED50 is the dose that gives a 50% effect, or the effect in half of the subjects. A word on the EC50: it is the concentration needed to bring the measured effect to its halfway point.

For one data set, the target named is Mu-type opioid receptor (Rattus norvegicus, UniProt P33535). The experiment in a line: Displacement of [3H]DAMGO from rat MOR expressed in CHO cell membranes incubated for 30 mins by liquid scintillation counting. Background: Displacement assays read how much labelled ligand stays bound in the presence of the test substance.
The target of data set [1] is T1, Delta-type opioid receptor (Rattus norvegicus, UniProt P33533). The experiment in a line: Displacement of [3H]DPDPE from rat DOR expressed in CHO cell membranes incubated for 30 mins by liquid scintillation counting.
The target in data set [2] is T2, Kappa-type opioid receptor (Homo sapiens, UniProt P41145). The experiment in a line: Displacement of [3H]U69593 from human KOR expressed in CHO cell membranes incubated for 30 mins by liquid scintillation counting.
Data set [3] has as its system Mus musculus. The experiment in a line: Antinociceptive activity in ip dosed Kunming mouse assessed as reduction in nociceptive response after 2 hrs by hot plate test. For orientation: Thermal pain tests record how soon the animal reacts.
Data set [4] concerns Mus musculus. The experiment in a line: Antinociceptive activity in ip dosed Kunming mouse assessed as reduction in nociceptive response after 2 hrs by acetic acid-induced abdominal constriction test.
The target in data set [5] is T1, Delta-type opioid receptor. The experiment in a line: Agonist activity at rat DOR expressed in CHO cell membranes assessed as stimulation of [35S]GTPgammaS binding incubated for 1 hr by liquid scintillation counting.
Data set [6] has as its target T2, Kappa-type opioid receptor. The experiment in a line: Agonist activity at human KOR expressed in CHO cell membranes assessed as stimulation of [35S]GTPgammaS binding incubated for 1 hr by liquid scintillation counting. For orientation: GTPγS resists hydrolysis and so accumulates on activated G proteins.
Data set [7] relates to Mus musculus. The experiment in a line: Induction of sedation in Kunming mouse assessed as inhibition of novelty-induced locomotor activity at 0.3 mg/kg, ip treated for 2 hrs before placing animal into locomotor chambers and monitored for 30 mins. Conditions: in vivo, 0.5 h.
Data set [8] has as its system Mus musculus. The experiment in a line: Induction of sedation in Kunming mouse assessed as inhibition of novelty-induced locomotor activity at 2.7 mg/kg, ip treated for 2 hrs before placing animal into locomotor chambers and monitored for 30 mins. As to conditions: in vivo, 0.5 h.
The subject of data set [9] is Mus musculus. The experiment in a line: Induction of sedation in Kunming mouse assessed as inhibition of novelty-induced locomotor activity at 5 mg/kg, ip treated for 30 mins before placing animal into locomotor chambers and monitored for 30 mins. As to conditions: in vivo, 0.5 h.

Turning to `COc1ccc2c3c1O[C@H]1[C@@]4(OC)CC[C@@]5(C[C@@H]4c4ccc(N6CCN(S(=O)(=O)c7ccc(C)cc7)CC6)cc4)[C@@H](C2)N(CC2CC2)CC[C@]315`, the Ki is 500 nM at Mu-type opioid receptor, above 5000 nM in [1] and 1550 nM in [2].

For the compound `CCCNc1ccc([C@H]2C[C@@]34CC[C@]2(OC)[C@@H]2Oc5c(OC)ccc6c5[C@@]23CCN(CC2CC2)[C@@H]4C6)cc1`, the Ki was 275 nM on Mu-type opioid receptor, 115 nM in [1] and 16.8 nM in data set [2].

As for `COc1ccc2c3c1O[C@H]1[C@@]4(OC)CC[C@@]5(C[C@@H]4c4ccc(N6CCN(C(=O)c7ccccc7)CC6)cc4)[C@@H](C2)N(CC2CC2)CC[C@]315`, the results for the Ki (on Mu-type opioid receptor; in data set [1]; in data set [2]) were above 5000 nM, 48.2 nM and 89 nM, respectively.

`COc1ccc2c3c1O[C@H]1[C@@]4(OC)CC[C@@]5(C[C@@H]4c4ccc(N6CCNCC6)cc4)[C@@H](C2)N(CC2CC2)CC[C@]315`: the values for the Ki (at Mu-type opioid receptor; in [1]; in data set [2]) were 55.4 nM, 821 nM and 80 nM, respectively.

For the compound `COc1ccc2c3c1O[C@H]1[C@@]4(OC)CC[C@@]5(C[C@@H]4c4ccc(NC(=O)c6ccccc6)cc4)[C@@H](C2)N(CC2CC2)CC[C@]315`, the Ki on Mu-type opioid receptor is 321 nM; in data set [1], 134 nM; in [2], 0.47 nM. Besides, the values for the ED50 with Mus musculus [3] and in the data set on Mus musculus [4] were 0.2 mg/kg and 0.1 mg/kg, respectively. The EC50 in [5] is 794 nM; in data set [6] it was 2 nM. Further, the Activity result in the data set with Mus musculus [7] and in the data set with Mus musculus [8] was “Toxic” each time.

With `CNc1ccc([C@H]2C[C@@]34CC[C@]2(OC)[C@@H]2Oc5c(OC)ccc6c5[C@@]23CCN(CC2CC2)[C@@H]4C6)cc1`, the Ki on Mu-type opioid receptor was 71 nM; in [1], 94.7 nM; in [2] it was 20.3 nM.

On to `CCOC(=O)CCNc1ccc([C@H]2C[C@@]34CC[C@]2(OC)[C@@H]2Oc5c(OC)ccc6c5[C@@]23CCN(CC2CC2)[C@@H]4C6)cc1`, for which the inhibition constant Ki at Mu-type opioid receptor is 44.4 nM; in [1], 19.5 nM; in data set [2], 20.8 nM.

Take `COc1ccc2c3c1O[C@H]1[C@@]4(OC)CC[C@@]5(C[C@@H]4c4ccc(N6CCN(CC7CC7)CC6)cc4)[C@@H](C2)N(CC2CC2)CC[C@]315`: the Ki is 36.1 nM at Mu-type opioid receptor, 179 nM in [1] and 50.3 nM in [2].

On to `COc1ccc2c3c1O[C@H]1[C@@]4(OC)CC[C@@]5(C[C@@H]4c4ccc(N6CCN(C(C)=O)CC6)cc4)[C@@H](C2)N(CC2CC2)CC[C@]315`, for which the Ki was determined as 100 nM on Mu-type opioid receptor, 22 nM in [1] and 121 nM in data set [2].

For the compound `COc1ccc2c3c1O[C@H]1[C@@]4(OC)CC[C@@]5(C[C@@H]4c4ccc(/N=N/c6ccc(O)cc6)cc4)[C@@H](C2)N(CC2CC2)CC[C@]315`, the Ki is above 5000 nM at Mu-type opioid receptor, above 5000 nM in [1] and 1590 nM in data set [2].

For `COc1ccc2c3c1O[C@H]1[C@@]4(OC)CC[C@@]5(C[C@@H]4c4ccc(N6CCCC6)cc4)[C@@H](C2)N(CC2CC2)CC[C@]315`, the Ki came out at 165 nM on Mu-type opioid receptor, 962 nM in data set [1] and 310 nM in data set [2].

For `COc1ccc2c3c1O[C@H]1[C@@]4(OC)CC[C@@]5(C[C@@H]4c4ccc(NCCCN(C)C)cc4)[C@@H](C2)N(CC2CC2)CC[C@]315`, the values for the Ki (on Mu-type opioid receptor; in data set [1]; in [2]) were 64.2 nM, 1200 nM and 58.6 nM, respectively.

`CCNc1ccc([C@H]2C[C@@]34CC[C@]2(OC)[C@@H]2Oc5c(OC)ccc6c5[C@@]23CCN(CC2CC2)[C@@H]4C6)cc1`: the Ki at Mu-type opioid receptor was 106 nM; in data set [1], 42.8 nM; in data set [2], 16.9 nM.

Take `COc1ccc2c3c1O[C@H]1[C@@]4(OC)CC[C@@]5(C[C@@H]4c4ccc(NCC6CC6)cc4)[C@@H](C2)N(CC2CC2)CC[C@]315`: the values for the Ki (on Mu-type opioid receptor; in data set [1]; in data set [2]) were 115 nM, 87.2 nM and 19.5 nM, respectively.

Take `COc1ccc2c3c1O[C@H]1[C@@]4(OC)CC[C@@]5(C[C@@H]4c4ccc(NCC(N)=O)cc4)[C@@H](C2)N(CC2CC2)CC[C@]315`: the Ki at Mu-type opioid receptor turned out to be 40.5 nM; in data set [1] it was 57.3 nM; in [2] it was 16.1 nM.

On to `CN(C(=O)Cc1ccc(Cl)c(Cl)c1)C1CCCCC1N1CCCC1` (configuration not stated), for which the Activity result in the data set on Mus musculus [9] is listed as “Toxic”.

Turning to `COc1ccc2c3c1O[C@H]1[C@@]4(OC)CC[C@@]5(C[C@@H]4c4ccc(N)cc4)[C@@H](C2)N(CC2CC2)CC[C@]315`, the Ki at Mu-type opioid receptor worked out at 45.9 nM; in data set [1] it was 33.3 nM; in data set [2], 6.4 nM. Besides, the EC50 came to 21.1 nM in [5] and 11.3 nM in data set [6].
